The subject of the experiment is telomerase (affinity-purified extract from 293 cells over-expressing hTERT). As to the kind of experiment: Bio-Tel FlashPlate telomerase activity assay. The class given is biochemical, human. To be noted: read-out: IC50(nM) phosphoramidate; telomerase inhibition, phosphoramidate backbone.

Usually IC50 stands for the concentration needed to halve the response being measured.

5′-TAGGGTTAGACAA-3′: the IC50 stood at 1.64 nM.

The values above are taken from patent US6608036B1, “Oligonucleotide N3′→P5′ thiophosphoramidates: their synthesis and administration to treat neoplasms” (Geron Corporation, priority 1999, dated 2003).
